{"sequences": {"note": "Chains of the proteins cited; added tags and fusions are not shown.", "UniProt Q9UNA4, whole entry": "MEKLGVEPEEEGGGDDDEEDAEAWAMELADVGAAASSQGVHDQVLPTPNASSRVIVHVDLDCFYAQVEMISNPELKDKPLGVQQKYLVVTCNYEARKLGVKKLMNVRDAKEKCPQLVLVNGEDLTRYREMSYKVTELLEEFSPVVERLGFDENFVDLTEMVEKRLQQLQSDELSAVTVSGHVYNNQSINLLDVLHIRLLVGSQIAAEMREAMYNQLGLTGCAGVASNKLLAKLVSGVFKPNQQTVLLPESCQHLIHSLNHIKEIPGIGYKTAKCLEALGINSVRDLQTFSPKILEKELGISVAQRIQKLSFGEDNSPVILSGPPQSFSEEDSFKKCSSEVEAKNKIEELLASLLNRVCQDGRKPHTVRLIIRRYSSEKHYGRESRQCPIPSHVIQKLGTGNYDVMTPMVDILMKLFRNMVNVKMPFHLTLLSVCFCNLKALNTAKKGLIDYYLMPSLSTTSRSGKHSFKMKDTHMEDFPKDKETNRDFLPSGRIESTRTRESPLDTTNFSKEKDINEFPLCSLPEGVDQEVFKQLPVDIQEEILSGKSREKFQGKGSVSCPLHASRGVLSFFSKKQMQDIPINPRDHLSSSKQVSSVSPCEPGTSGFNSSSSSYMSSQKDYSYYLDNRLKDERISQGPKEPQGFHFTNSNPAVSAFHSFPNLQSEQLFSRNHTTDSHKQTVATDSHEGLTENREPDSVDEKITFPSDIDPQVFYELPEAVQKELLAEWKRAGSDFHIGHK"}, "source": "PubChem BioAssay AID588590", "about": "(National Center for Advancing Translational Sciences (NCATS), 2011)", "note": "The list shows a part of the results, in another mix than the full data. Records with an inconclusive call do not appear. The source made the active and inactive calls. Calls follow the shape of the dose curve; as a rule, active = well fitted inhibition curve with a large enough effect; inconclusive = small, poorly fitted or top-dose-only effect, or another doubt; inactive = no such curve, though single readings can be large or run the other way.", "data": [{"molecular_target": "DNA polymerase iota (Homo sapiens) (UniProt Q9UNA4)", "assay": "qHTS for Inhibitors of Polymerase Iota", "settings": "Pol iota fluorescent replication assay, 10 min; at 115 µM (top of the series)", "values": [{"smiles": "COc1ccccc1OP(C)(=O)Nc1c(C)cccc1C", "note": "(stereo unspecified)", "activity, negative = inhibition": "inactive: 13.8%"}]}]}
